This is an account of results in EP0900076B1, “TRANSDERMAL DEVICE” (priority 1996, dated 1997).

Marks after values point to notes of the source that are not given here.

One data set in a line: clinical. The settings on record: human, in vivo, 30 mg.
The conditions of data set [1]: plasma hydromorphone, Predose.
Where [2] appears, read: Mean±sd, plasma hydromorphone, 4 patients.
The mark [3] stands for this setting: Subject 1, plasma hydromorphone.
Setting [4] is: Subject 2, plasma hydromorphone.
[5] abbreviates: Subject 3, plasma hydromorphone.
Where [6] appears, read: fourth subject (head empty), plasma hydromorphone.

With `CN1CC[C@]23c4c5ccc(O)c4O[C@H]2C(=O)CC[C@H]3[C@H]1C5` [Hydromorphone], in the data set “clinical” (setting [2]), the concentration at 1 h was determined as 3.93 ± 1.91 ng/mL, the concentration at 2 h is 4.59 ± 1.71 ng/mL, the concentration at 3 h worked out at 4.78 ± 1.36 ng/mL and the concentration at 4 h was 5.65 ± 3 ng/mL. In “clinical” (setting [3]), this compound had a concentration at 1 h of 2.38 ng/mL, a concentration at 2 h of 2.59 ng/mL, a concentration at 3 h of 3.84 ng/mL and a concentration at 4 h of 2.71 ng/mL. In addition, in “clinical” (setting [4]), the concentration at 1 h worked out at 6.71 ng/mL, the concentration at 2 h stood at 6.48 ng/mL, the concentration at 3 h amounted to 6.47 ng/mL and the concentration at 4 h amounted to 9.7 ng/mL. For the same compound, in the data set “clinical” (setting [5]), the concentration at 1 h was 3.46 ng/mL, the concentration at 2 h came out at 3.63 ng/mL, the concentration at 3 h came to 3.53 ng/mL and the concentration at 4 h came to 4.28 ng/mL. In the data set “clinical” (setting [6]), the concentration at 1 h was 3.17 ng/mL, the concentration at 2 h is 5.66 ng/mL, the concentration at 3 h was determined as 5.27 ng/mL and the concentration at 4 h is 5.9 ng/mL. Further, in data set [1], the “Concentration, Subject 1” value was determined as 0 ng/mL; the “Concentration, Subject 3” value came to 0 ng/mL; the “Concentration, fourth subject (head empty)” value worked out at 0 ng/mL. Besides, the “Concentration, Subject 2” value in data set [1] (sample contains interference at the retention time of hydromorphone) is reported as 1.19* ng/ml.
